The values below come from PubChem BioAssay AID950 (NMMLSC, 2007).

Amino acid sequences for entries named in this document (tags omitted).
UniProt P10415, whole entry: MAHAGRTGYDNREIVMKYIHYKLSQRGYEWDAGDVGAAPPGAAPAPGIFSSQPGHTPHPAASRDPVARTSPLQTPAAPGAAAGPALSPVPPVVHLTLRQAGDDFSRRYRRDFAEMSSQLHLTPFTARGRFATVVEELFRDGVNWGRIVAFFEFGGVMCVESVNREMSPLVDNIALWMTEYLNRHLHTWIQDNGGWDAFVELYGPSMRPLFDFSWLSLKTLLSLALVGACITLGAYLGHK

The entries are a selection whose mix differs from that of the whole data set. Active and inactive are the calls of the source. Cut-off read from the data, not from the text of the source: active = inhibition above about 40%; inconclusive = no clear call, values can overlap the other calls; inactive = below that.

The assay deals with Apoptosis regulator Bcl-2 (Homo sapiens) (UniProt P10415). Nature of the assay: inhibitors of Bim-Bcl-2 binding, primary screen, biochemical, multiplexed, human Bcl-2 family (AID 950).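 Note: 0% = no compound wells with probe peptide and 100% = reference peptide inhibitor.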 To be noted: Bead-based flow cytometry, Bim peptide-Bcl-2 binding; at 10 µM; hits give high values. A general note: Flow cytometry measures light scatter and fluorescence of single cells or particles in a stream.
As for `Cc1ccccc1NP(C)(=O)Nc1ccccc1C`, the inhibition (as a rule, the drop in the measured response relative to a control, in per cent) was inactive: -4%.
In the case of `CP(=O)(Nc1ccc2c(c1)OCCO2)Oc1ccccc1` (centres undefined) it was inactive: 9%; in that of `CCOP(C)(=S)SCC(=O)NC(C)(CC)C(=O)O` (centres undefined), inactive: -14%.
Turning to `O=[N+]([O-])c1cc([N+](=O)[O-])c(NCC2CCS(=O)(=O)C2)c([N+](=O)[O-])c1` (centres undefined), the inhibition was inactive: -2%.
Then `CN(C)CCOC(=O)C(O)(c1ccccc1)C1CCCCC1` (centres undefined), with inactive: -2%.
In the case of `COc1ccc(NP(C)(=O)Oc2ccccc2OC)cc1` (centres undefined) it was inactive: 4%; in that of `COc1ccc(OP(C)(=O)Nc2cccc(Br)c2)cc1` (centres undefined), inactive: -14%.
`CP(=O)(Nc1ccccc1)Oc1ccc(F)cc1` (centres undefined): the inhibition is inactive: -2%.
As to `CCN(CC)CCCOC(=O)C(O)(c1ccccc1)C1CCCCC1` (centres undefined), the inhibition is inactive: -21%.
As to `CCOC(=O)c1ccc(NP(C)(=O)Oc2ccc(F)cc2)cc1` (centres undefined), the inhibition is inactive: 1%.
In the case of `COc1ccc(OP(C)(=O)Nc2ccc(SC(F)(F)F)cc2)cc1` (centres undefined) it was inactive: 0%; in that of `O=C(OCCN1CCN(CCOCc2ccccc2)CC1)C(O)(c1ccccc1)c1ccccc1`, inactive: -5%; in that of `CP(=O)(Nc1ccccc1F)Oc1ccccc1` (centres undefined), inactive: -7%.
Then `CC(C)c1ccc(OP(C)(=O)Nc2ccc(SC(F)(F)F)cc2)cc1` (centres undefined), with inactive: -8%.
In the case of `COc1ccccc1OP(C)(=O)Nc1ccc(C)cc1C` (centres undefined) it was inactive: -2%; in that of `CP(=O)(Nc1ccccn1)Oc1ccccc1` (centres undefined), inactive: -7%.
On to `CCc1ccc(OP(C)(=O)O)cc1`, for which the inhibition was inactive: 0%.
Consider `O=[N+]([O-])c1cc([N+](=O)[O-])c(Nc2ccccn2)c([N+](=O)[O-])c1`, for which the inhibition was inactive: -11%.
In the case of `Cc1c(NP(C)(=O)Oc2ccc(C(C)C)cc2)c(=O)n(-c2ccccc2)n1C` (centres undefined), the inhibition is inactive: -3%.
For the molecule `COc1ccc(OP(C)(=O)Nc2ccccn2)cc1` (centres undefined), the inhibition is inactive: -1%.
As to `CN(C)CCOC(=O)C(O)(c1ccccc1)C1CCCC1` (centres undefined), the inhibition is inactive: -1%.
For `CP(=O)(OCCOc1ccccc1)OCCOc1ccccc1`, the inhibition is inactive: -4%.
For the molecule `CP(=O)(Nc1ccc(Cl)cc1Cl)Oc1ccccc1` (centres undefined), the inhibition was inactive: -4%.
As for `Cc1nc2ccc3ccccc3c2o1.O=[N+]([O-])c1cc([N+](=O)[O-])c(O)c([N+](=O)[O-])c1`, the inhibition is inactive: -4%.
On to `COc1ccccc1OP(C)(=O)Nc1ccc(C)c(C)c1` (centres undefined), for which the inhibition was inactive: -7%.
Then `COc1ccc(OP(C)(=O)Nc2ccccc2Br)cc1` (centres undefined), with inactive: -10%; and `Cc1cc(C)cc(OP(C)(=O)Nc2cccc(C(F)(F)F)c2)c1` (centres undefined), with inactive: -1%; and `CCOC(=O)c1ccc(NP(C)(=O)Oc2ccc(Cl)cc2)cc1` (centres undefined), with inactive: -2%.
For `CP(=O)(OC12CC3CC(CC(C3)C1)C2)OC12CC3CC(CC(C3)C1)C2`, the inhibition is inactive: -13%.
Then `CN(C)C(=O)c1c([N+](=O)[O-])cc([N+](=O)[O-])cc1[N+](=O)[O-]`, with inactive: -2%; and `CC(C)(C)c1ccc(OP(C)(=O)O)cc1`, with inactive: 1%; and `COc1ccccc1OP(C)(=O)Nc1ccccc1Br` (centres undefined), with inactive: -4%.
Then `CP(=O)(Nc1ccc(Cl)cc1)Oc1ccc(F)cc1` (centres undefined), with inactive: -7%.
In the case of `CCc1ccc(OP(C)(=O)Nc2cccnc2)cc1` (centres undefined) it was inactive: 0%.
`CP(=O)(Oc1ccccc1)N1CCOC1=O` (centres undefined): the inhibition was inactive: -5%.
For the molecule `COc1ccc(OP(C)(=O)Nc2ccc(Br)cc2)cc1` (centres undefined), the inhibition is inactive: -4%.
In the case of `CCN(CC)CC(O)COC(=O)C(O)(c1ccccc1)C1CCCCC1` (centres undefined) it was inactive: -2%; in that of `CP(=O)(Nc1ccccn1)Oc1ccc(Cl)cc1` (centres undefined), inactive: -2%; in that of `CCOC(=O)c1ccc(NP(C)(=O)Oc2ccc(OC)cc2)cc1` (centres undefined), inactive: -8%.
In the case of `CCOP(C)(=S)SCC(=O)NC(C)C(=O)O` (centres undefined) it was inactive: 5%.
Then `Cc1cc(C)cc(OP(C)(=O)Nc2ccc(SC(F)(F)F)cc2)c1` (centres undefined), with inactive: -6%; and `CP(=O)(NC(=O)Nc1ccccc1)Oc1ccccc1` (centres undefined), with inactive: -6%.
On to `CP(=O)(Oc1ccccc1)OC(c1ccccc1)C(F)(F)F` (centres undefined), for which the inhibition is inactive: -1%.
In the case of `Cc1cccc(C)c1OP(C)(=O)Nc1ccc(SC(F)(F)F)cc1` (centres undefined) it was inactive: 6%; in that of `CP(=O)(Nc1ccccc1Br)Oc1ccccc1` (centres undefined), inactive: -3%.
`COc1ccccc1OP(C)(=O)Nc1ccccc1` (centres undefined): the inhibition is inactive: -5%.
On to `CP(=S)(Nn1cnnc1)Oc1ccccc1` (centres undefined), for which the inhibition is inactive: -4%.
Then `Cc1cc(C)cc(OP(C)(N)=O)c1` (centres undefined), with inactive: -2%.
On to `COc1ccc(OP(C)(=O)Nc2cccc(F)c2)cc1` (centres undefined), for which the inhibition was inactive: 3%.
In the case of `COc1ccccc1OP(C)(=O)Nc1cc(Cl)ccc1C` (centres undefined) it was inactive: -2%.
Then `Cc1ccc(NP(C)(=O)Oc2ccccc2)c(C)c1` (centres undefined), with inactive: -4%.
Then `COc1ccccc1OP(C)(=O)Nc1ccc(C)cc1` (centres undefined), with inactive: 6%; and `CCOC(=O)c1ccc(NP(C)(=O)Oc2ccccc2)cc1` (centres undefined), with inactive: -1%.
Take `O=[N+]([O-])c1ccc2c(c1)C=Nc1ccccc1O2`: the inhibition is inactive: -1%.
Then `Cc1cccc(C)c1OP(C)(N)=O` (centres undefined), with inactive: -4%.
Regarding `CC(C)(C)c1ccc(OP(C)(=O)Nc2ccc(SC(F)(F)F)cc2)cc1` (centres undefined), the inhibition is inactive: 0%.
In the case of `CCN(CC)CCCOC(=O)C(O)(c1ccccc1)c1ccccc1` it was inactive: 0%; in that of `Cc1ccc(C)c(NP(C)(=O)Oc2ccccc2)c1` (centres undefined), inactive: 0%; in that of `CP(=O)(Nc1cccc(Br)c1)Oc1ccccc1` (centres undefined), inactive: 1%.
In the case of `Cc1cc(C)cc(OP(C)(=O)Nc2ccccn2)c1` (centres undefined) it was inactive: -7%.
As to `CCOC(=O)c1ccc(NP(C)(=O)Oc2cc(C)cc(C)c2)cc1` (centres undefined), the inhibition was inactive: 0%.
Consider `Cc1cc(C)cc(OP(C)(=O)Nc2ccc(C)cc2C)c1` (centres undefined), for which the inhibition is inactive: -5%.
In the case of `CC1=NCCc2c1[nH]c1ccccc21.O=[N+]([O-])c1cc([N+](=O)[O-])c(O)c([N+](=O)[O-])c1` it was inactive: 0%; in that of `CP(=O)(Nc1ccc(SC(F)(F)F)cc1)Oc1ccccc1` (centres undefined), inactive: -2%; in that of `CCCOc1ccc(NP(C)(=O)Oc2ccc(Cl)cc2)cc1` (centres undefined), inactive: 0%.
Turning to `COc1ccccc1OP(C)(=O)Nc1c(C)cccc1C` (centres undefined), the inhibition was inactive: 0%.
Then `CN1CCCCC1COC(=O)C1(O)c2ccccc2CCc2ccccc21` (centres undefined), with inactive: -8%; and `Cc1nc2ccc3ccccc3c2s1.O=[N+]([O-])c1cc([N+](=O)[O-])c(O)c([N+](=O)[O-])c1`, with inactive: -8%.
In the case of `O=[N+]([O-])c1cc([N+](=O)[O-])c(-n2nnc3ccccc32)c([N+](=O)[O-])c1` it was inactive: 2%.
